Biological target: Sodium- and chloride-dependent GABA transporter 1 (Mus musculus, UniProt P31648)
Type: cell-based, HEK293

O=C(O)C1CCCNC1 (stereo unspecified) [NIPECOTIC ACID]
IC50: 8.51 µM

From ChEMBL document CHEMBL2385039 (Bioorg Med Chem, 2013)
